# Patent publication US11458122B2, “Methods for treating diseases and nerve injuries” (CHILDREN'S HOSPITAL MEDICAL CENTER, priority 2017, dated 2022)
# Conditions: PDA106 100 mg/kg, RGFP966 10 mg/kg
structure (smiles),measurement,value
"Cc1ccc(NC(=O)CCCCCC(=O)Nc2ccccc2N)cc1 [PDA106, N1-(2-Aminophenyl)-N7-(4-methylphenyl)-heptanediamide]",tolerability / side effects in mice,without adverse effects on mice
